Test results as given in ChEMBL document CHEMBL1275380, “Studies toward the structural optimization of novel thiazolylhydrazone-based potent antitrypanosomal agents” (Bioorg Med Chem, 2010).

Sequences of proteins named here, by UniProt entry; tags and fusion partners are left off. A change or cut given only in a name is not applied to a line headed by its entry.
UniProt P25779: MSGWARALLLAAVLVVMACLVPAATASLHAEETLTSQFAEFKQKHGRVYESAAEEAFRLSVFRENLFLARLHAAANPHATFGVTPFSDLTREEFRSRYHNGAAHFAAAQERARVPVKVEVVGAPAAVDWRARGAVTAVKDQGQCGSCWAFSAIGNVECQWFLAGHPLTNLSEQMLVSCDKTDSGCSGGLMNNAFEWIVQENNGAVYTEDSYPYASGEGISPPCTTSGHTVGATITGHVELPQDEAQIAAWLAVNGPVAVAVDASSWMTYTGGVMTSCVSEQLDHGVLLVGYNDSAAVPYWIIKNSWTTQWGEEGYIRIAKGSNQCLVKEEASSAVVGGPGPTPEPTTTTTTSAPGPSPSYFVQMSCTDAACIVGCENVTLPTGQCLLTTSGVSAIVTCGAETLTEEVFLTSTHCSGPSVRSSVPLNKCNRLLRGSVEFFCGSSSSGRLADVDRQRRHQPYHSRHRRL

Target: Cruzipain (Trypanosoma cruzi, UniProt P25779)
Assay: Inhibition of Trypanosoma cruzi cruzaine pre-incubated for 10 mins

- IC50: 0.04 µM
Compound: CC/C(=N\NC(N)=S)c1cccc(Br)c1
